The values that follow come from US9765082B2, “Crystalline form of tiotropium bromide with lactose” (EUTICALS SPA, priority 2014, dated 2017).

Series [1] is described as follows: Stability of the crystalline form on storage, analyzed by DRX (powder). As to conditions: for Crystalline form by DRX (powder), 1st month: 1 month; for Crystalline form by DRX (powder), 2nd month: 2 months; for Crystalline form by DRX (powder), 3rd month: 3 months. It counts as physicochemical. Here is the method: (§1) X-Ray Diffraction spectra were registered by means of diffractometer (Rigaku-D-Max) from a start angle [½ 2-theta] of 5.000 to 60.000. The diffraction diagrams were obtained employing a Cu anode (Kα=1,54060 Å and Kα=1,54439 Å). The HPLC method utilized to check the quality of Tiotropium Bromide in the examined samples is the same as described in the European Pharmacopoeia 7.0.
Tiotropium Bromide Cocrystal obtained according to the Example 1 was analyzed by DRX (powder) at 1, 2 and 3 months in the following storage conditions in order to verify the stability of this crystalline form.

Series [2] is described as follows: Micronization by air jet mill: particle size distribution and solid state by DRX. It counts as physicochemical.
Source text: as §1
A sample of Tiotropium Bromide Cocrystal obtained according to Example 1 was micronized using the air jet mill technique in order to verify if this physical treatment affected the quality and the solid state of this product. The obtained analytical results (particle size distribution and chemical purity determined by HPLC) are shown in Table 3; the DRX data of the micronized material confirm that the solid state is not changed after micronization (FIG. 5).

Setting [3] is: before / after air jet mill micronization.

For “Tiotropium Bromide cocrystal with lactose”, in series [1] (Amber glass at 25° C.), the “Crystalline form by DRX (powder), 1st month” value (shortened to “Crystalline form … 1st month”) was “Unchanged”; the “Crystalline form by DRX (powder), 2nd month” value (“Crystalline form … 2nd month” below) is “Unchanged”; the “Crystalline form by DRX (powder), 3rd month” value (from here on “Crystalline form … 3rd month”) is listed as “Unchanged”. Further, in series [1] (Amber glass at 40° C.), the “Crystalline form … 1st month” value is recorded as “Unchanged”; the “Crystalline form … 2nd month” value is “Unchanged”; the “Crystalline form … 3rd month” value was “Unchanged”. Further, in series [1] (Polyethylene bag 25° C./60% UR), the “Crystalline form … 1st month” value is “Unchanged”; the “Crystalline form … 2nd month” value is “Unchanged”; the “Crystalline form … 3rd month” value is given as “Unchanged”. Also, the “Solid state after micronization (DRX)” value in series [2] (air jet mill, FIG. 5) is recorded as “not changed”. Moreover, in series [2] (setting [3]), the “D10 (particle size distribution)” value was found to be 2.03 microns, the “D50 (particle size distribution)” value turned out to be 16.6 microns and the “D90 (particle size distribution)” value was 178 microns.
